Data from patent US20250228785A1, “MICROCAPSULE, PREPARATION METHOD THEREFOR, AND USE THEREOF IN PREVENTING AND/OR TREATING DAMAGE TO SALIVARY GLANDS CAUSED BY RADIATION THERAPY” (CAPITAL MEDICAL UNIVERSITY, priority 2021, published 2025).

Test: Serum biochemical detection at 8 weeks after radiotherapy
Settings: SD rats, 8 weeks after submandibular gland irradiation

Substance sodium nitrate has a Cl (high dose 40.5 mM in drinking water) of 104.16 ± 1.15 mmol/L and a Cl (low dose 20.25 mM in drinking water) of 104.54 ± 1.23 mmol/L.
